Tested on: levels of acetylcholine in the cerebral cortex (frontal area), in the hippocampus and in the corpus striatum
Assay: Levels of acetylcholine in rat brain areas after 1 week of treatment
Set-up: species or system Male Wistar rats
Conditions: in vivo, po, 2.5 mg/kg
Description: The effects of the combination of the cholinergic precursor choline alfoscerate and rivastigmine (acetylcholinesterase inhibitor) on the levels of acetylcholine in the cerebral cortex (frontal area), in the hippocampus and in the corpus striatum of rats, and on the immunoreactivity of the neuronal acetylcholine in the neurones of the magnocellular nucleus basalis (MNB) and in the corpus striatum were studied.
Male Wistar rats were divided into 5 groups, one of which was a control group (non-treated), one treated for 1 week by intraperitoneal administration of 150 mg/kg of choline alfoscerate, one treated with a daily oral dose of 2.5 mg/kg of rivastigmine, the fourth with 150 mg/kg of choline alfoscerate plus 0.625 mg/kg of rivastigmine and the fifth with 150 mg/kg of choline alfoscerate plus 2.5 mg/kg of rivastigmine.

SMILES: CCN(C)C(=O)Oc1cccc([C@H](C)N(C)C)c1 [rivastigmine]
- increased the levels of acetylcholine: approximately 20%
